Source: US20080287490A1, “Bis-pyridino containing compounds for the use in the treatment of CNS pathologies” (UNIVERSITY OF KENTUCKY RESEARCH FOUNDATION, priority 2005, published 2008)

System: nAChR subtypes mediating nicotine-evoked [^3H]-dopamine overflow
Settings: read-out: Nicotine-evoked [^3H]DA Overflow IC50; Table 5; mean (95% confidence interval); tested form: iodide (read from the final I of the cod)

Compound: CCCCCCCCCC[n+]1ccccc1
- IC50: 130 nM
